Results reported in article PMC3003753 (Journal of medicinal chemistry, 2010).

Sequences of proteins named here, by UniProt entry; tags and fusion partners are left off.
UniProt P61073, whole entry: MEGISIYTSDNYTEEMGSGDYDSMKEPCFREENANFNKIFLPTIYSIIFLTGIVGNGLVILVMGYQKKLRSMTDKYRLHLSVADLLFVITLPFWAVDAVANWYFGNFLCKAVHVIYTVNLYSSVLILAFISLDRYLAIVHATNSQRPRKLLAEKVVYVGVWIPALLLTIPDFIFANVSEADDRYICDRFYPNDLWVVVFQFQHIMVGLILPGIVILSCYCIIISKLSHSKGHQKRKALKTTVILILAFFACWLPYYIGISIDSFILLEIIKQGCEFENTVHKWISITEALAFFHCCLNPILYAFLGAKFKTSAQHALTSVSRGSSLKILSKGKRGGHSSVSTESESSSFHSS
UniProt P51681, whole entry: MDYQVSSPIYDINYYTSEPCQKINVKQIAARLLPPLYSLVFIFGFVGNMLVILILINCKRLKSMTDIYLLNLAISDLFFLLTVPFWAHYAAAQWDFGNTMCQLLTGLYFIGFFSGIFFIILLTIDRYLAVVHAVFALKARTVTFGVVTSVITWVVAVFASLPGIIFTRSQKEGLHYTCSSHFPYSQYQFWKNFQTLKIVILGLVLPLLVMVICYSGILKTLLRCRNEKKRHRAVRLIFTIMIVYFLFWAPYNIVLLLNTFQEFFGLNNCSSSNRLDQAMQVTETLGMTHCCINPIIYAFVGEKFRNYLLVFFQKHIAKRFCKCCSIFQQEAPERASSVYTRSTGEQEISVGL

How the values were obtained:
CXCR4 = CXCR4 (Homo sapiens, UniProt P61073); experiment: cAMP assay; type: cell-based
CCR5 = CCR5 (Homo sapiens, UniProt P51681); experiment: cAMP assay, U87CD4CCR5 cells stimulated with CCL5; type: cell-based

Cl.Cl.Cl.Cl.Cl.Cl.Cl.Cl.c1cc(CN2CCCNCCNCCCNCC2)ccc1CN1CCCNCCNCCCNCC1 [Compound 1, AMD3100, reference compound]
Concentration at which CXCL12 function is significantly blocked / counteracted (CXCR4): ~1000 nM | Effect on blocking CCL5 stimulating CCR5 (cAMP) (CCR5): no significant effect
